The test system of the data set is mouse. As to the kind of experiment: Potentialisation of the group toxicity to amphetamine. The data set is classed as in vivo. Particulars: group toxicity in respect of amphetamine. Here is the method: The different tests which are carried out on mice by the known techniques comprise:
the potentialisation of the group toxicity to amphetamine,
(3) Group toxicity in respect of amphetamine

Data on one substance can be found in patent US4297346A, “Pseudopeptides used as medicaments” (priority 1976, dated 1981).

As to pGlu--His--DA [pGlu-His-dopamine], the “dosage which causes 50% mortality of the animals” value amounted to 1120 mg/kg.
